The list shows a part of the results, in another mix than the full data. The source made the active and inactive calls.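 The calls were made as follows: active = inhibition of 50% or more in the single-concentration screen; inactive = inhibition below 50%.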

By UniProt entry, the sequences of proteins in these tests, tags left out.
UniProt P53350, whole entry: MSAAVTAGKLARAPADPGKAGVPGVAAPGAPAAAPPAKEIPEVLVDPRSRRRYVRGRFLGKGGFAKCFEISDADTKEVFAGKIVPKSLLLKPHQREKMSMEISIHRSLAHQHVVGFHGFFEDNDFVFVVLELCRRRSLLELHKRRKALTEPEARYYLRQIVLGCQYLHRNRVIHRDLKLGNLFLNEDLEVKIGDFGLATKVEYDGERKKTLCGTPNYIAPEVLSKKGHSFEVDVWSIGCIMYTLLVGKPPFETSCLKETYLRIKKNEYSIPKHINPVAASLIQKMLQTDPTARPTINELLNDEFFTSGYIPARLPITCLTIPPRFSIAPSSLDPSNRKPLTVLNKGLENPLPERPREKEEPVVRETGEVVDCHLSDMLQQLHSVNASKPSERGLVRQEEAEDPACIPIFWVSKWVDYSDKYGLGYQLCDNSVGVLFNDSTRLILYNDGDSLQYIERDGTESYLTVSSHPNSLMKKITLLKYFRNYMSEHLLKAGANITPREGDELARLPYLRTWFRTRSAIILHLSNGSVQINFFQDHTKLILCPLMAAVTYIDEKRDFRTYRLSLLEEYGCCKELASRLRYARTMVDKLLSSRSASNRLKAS

The term inhibition denotes the change of the read-out against control, counted positive when it falls.

In the assay the target is Serine/threonine-protein kinase PLK1 (Homo sapiens) (UniProt P53350). As to the kind of experiment: human PLK1 kinase inhibitors, primary screen, biochemical, TR-FRET (AID 619).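 Also: 0% = DMSO max control and 100% = H-89 dihydrochloride min control.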 To be noted: recombinant PLK1 kinase, TR-FRET peptide phosphorylation; at 10 µM; active compounds read high. On the technique in general: Time-resolved FRET reads energy transfer from a long-lived donor to a nearby acceptor.
Consider `COc1ccccc1OP(C)(=O)Nc1c(C)cccc1C` (stereo not given), for which the inhibition was inactive: -2.36%. For `Cc1nc2ccc3ccccc3c2s1.O=[N+]([O-])c1cc([N+](=O)[O-])c(O)c([N+](=O)[O-])c1`, the inhibition is inactive: -2.41%. In the case of `Cc1ccc(C)c(NP(C)(=O)Oc2ccccc2)c1` (stereo not given) it was inactive: 1.33%; in that of `Cc1cc(C)cc(OP(C)(=O)Nc2ccccn2)c1` (stereo not given), inactive: -0.37%; in that of `Cc1cc(C)cc(OP(C)(=O)Nc2ccc(C)cc2C)c1` (stereo not given), inactive: 0.67%. The same measure for `COc1ccc(OP(C)(=O)Nc2cccc(F)c2)cc1` (stereo not given): inactive: -6.41%. As for `CP(=O)(Nc1ccccn1)Oc1ccc(Cl)cc1` (stereo not given), the inhibition is inactive: -8.05%.

As for `CP(=O)(NC(=O)Nc1ccccc1)Oc1ccccc1` (stereo not given), the inhibition is inactive: -16.3%.

Regarding `CP(=S)(Nn1cnnc1)Oc1ccccc1` (stereo not given), the inhibition is inactive: -14%. The same measure for `CP(=O)(OC12CC3CC(CC(C3)C1)C2)OC12CC3CC(CC(C3)C1)C2`: inactive: -12.6%; for `CC(C)(C)c1ccc(OP(C)(=O)O)cc1`: inactive: -5.11%; for `CP(=O)(Nc1ccc(Cl)cc1)Oc1ccc(F)cc1` (stereo not given): inactive: -9.79%. The same measure for `COc1ccccc1OP(C)(=O)Nc1c(C)n(C)n(-c2ccccc2)c1=O` (stereo not given): inactive: -18.1%; for `CP(=O)(Oc1ccccc1)N1CCOC1=O` (stereo not given): inactive: -12.7%; for `CCN(CC)CC(O)COC(=O)C(O)(c1ccccc1)C1CCCCC1` (stereo not given): inactive: -2.15%. With `CP(=O)(Nc1ccccn1)Oc1ccccc1` (stereo not given), the inhibition is inactive: -7.61%. In the case of `COc1ccccc1OP(C)(=O)Nc1ccc(C)cc1C` (stereo not given), the inhibition is inactive: -16.1%. In the case of `CCc1ccc(OP(C)(=O)O)cc1` it was inactive: -3.97%; in that of `Cc1c(NP(C)(=O)Oc2ccc(C(C)C)cc2)c(=O)n(-c2ccccc2)n1C` (stereo not given), inactive: -0.15%. In the case of `COc1ccc(OP(C)(=O)Nc2ccccn2)cc1` (stereo not given) it was inactive: 0.43%; in that of `CN(C)CCOC(=O)C(O)(c1ccccc1)C1CCCC1` (stereo not given), inactive: -9.67%; in that of `Cc1nc2ccc3ccccc3c2o1.O=[N+]([O-])c1cc([N+](=O)[O-])c(O)c([N+](=O)[O-])c1`, inactive: -7.98%. For the compound `COc1ccccc1OP(C)(=O)Nc1ccc(C)c(C)c1` (stereo not given), the inhibition was inactive: -9.94%. In the case of `CP(=O)(Nc1ccccc1)Oc1ccc(F)cc1` (stereo not given) it was inactive: -11.9%; in that of `CCN(CC)CCCOC(=O)C(O)(c1ccccc1)C1CCCCC1` (stereo not given), inactive: -13.3%; in that of `CP(=O)(Nc1ccccc1F)Oc1ccccc1` (stereo not given), inactive: -0.93%. In the case of `CP(=O)(Nc1ccc2c(c1)OCCO2)Oc1ccccc1` (stereo not given) it was inactive: -4%; in that of `CCOP(C)(=S)SCC(=O)NC(C)(CC)C(=O)O` (stereo not given), inactive: -8.41%. Take `CN(C)CCOC(=O)C(O)(c1ccccc1)C1CCCCC1` (stereo not given): the inhibition was inactive: -13.1%. The same measure for `COc1ccc(OP(C)(=O)Nc2cccc(Br)c2)cc1` (stereo not given): inactive: -8.56%.

The values above are taken from PubChem BioAssay AID619 (University of Pittsburgh Molecular Library Screening Center, 2007).
